Results reported in patent US20240325362A1, “NOVEL THERAPEUTIC METHOD FOR ENHANCING MITOCHONDRIAL FUNCTION, TREATING MITOCHONDRIAL DISEASES THEREBY, AND COMPOUNDS USED THEREIN” (STANDIGM INC., priority 2020, published 2024).

Tests used:
[1] = test system: SH-SY5Y human neuroblastoma cells; assay: Overall protection in MPP+-lesioned human cell model; assay type: cell-based; details: for protective effects on mitochondrial functions (FIG. 3): 0.001-10 µM, FIGS. 3(A)-3(E); for protective effects on mitochondrial functions (FIG. 3) / cell-protective ability against MPP+ (FIG. 4): 4 hours before 1 mM MPP+ for 20 hours; for protective effects against MPP+ (FIG. 2) / protective effects against MPP+ induced cellular and mitochondrial damages (FIG. 1): compound 4 hours before 1 mM MPP+ for 20 hours; for protective effects against MPP+ (FIG. 2): FIGS. 2(A)-2(C); for protective effects against MPP+ induced cellular and mitochondrial damages (FIG. 1): FIGS. 1(A), 1(B); for cell-protective ability against MPP+ (FIG. 4): 0.01-100 nM, FIGS. 4(A)-4(E); for protective activity on mitochondria and cells at sub-nanomolar doses: MPP+-lesioned human cell model
[2] = test system: SH-SY5Y human neuroblastoma cells; assay type: cell-based; details: 0.01-100 nM; 1 mM MPP+ 20 hours
Description: Similarly, total and mitochondrial ROS generations were measured using CM-H2DCFDA and MitoSox, respectively. Cells were incubated with 1 µM CM-H2DCFDA or 5 μM MitoSox and 0.5 μM Hoechst 33342 for 1 hour at 37° C.
Fluorescence intensities at 550 nm/580 nm for TMRE, at 510 nm/580 nm for MitoSox, or at 494 nm/522 nm for CM-H2DCFDA were normalized by HOECHST® intensity at 355 nm/480 nm (Spectramax Gemini EM, Molecular Devices, Sunnyvale, CA, USA).

mycophenolate-mofetil
protective effects on mitochondrial functions (FIG. 3) [1]: protective effects | protective effects against MPP+ (FIG. 2) [1]: Protective Effects

preladenant
protective effects against MPP+ induced cellular and mitochondrial damages (FIG. 1) [1]: protective effects

N-(3-methyl-5- sulfamoyl-1,3,4- thiadazol-2- ylidene)acetamide [methazolamide]
cell-protective ability against MPP+ (FIG. 4) [1]: cell-protective ability

nicardipine
cell-protective ability against MPP+ (FIG. 4) [1]: cell-protective ability | protective activity on mitochondria and cells at sub-nanomolar doses [1]: protective activity on mitochondria and cells even under sub-nanomolar doses | intracellular ROS content, FIG. 4(E) [2]: reduced ROS production significantly | mitochondrial ROS content, FIG. 4(D) [2]: reduced ROS production significantly

CC(=O)[C@@]1(O)CC[C@H]2[C@@H]3C=C(C)C4=CC(=O)CC[C@]4(C)[C@H]3CC[C@@]21C [megestrol, (8R,9S,10R,13S,14S, 17R)-17-acetyl-17-hydroxy-6,10, 13-trimethyl-2,8,9,11,12,14,15, 16-octahydro-1H-cyclopenta[a] phenanthren-3-one]
protective effects against MPP+ (FIG. 2) [1]: Protective Effects

fusidic acid
protective effects against MPP+ (FIG. 2) [1]: Protective Effects

CCN(CC)C(=O)N1CCN(C)CC1 [diethylcarbamazine, N,N-diethyl-4-methylpiperazine-1-carboxamide]
cell-protective ability against MPP+ (FIG. 4) [1]: cell-protective ability

5-O-[(3R)-1- benzylpiperidin- 3-yl] 3-O-methyl (4R)-2,6- dimethyl-4-(3- mitrophenyl)-1,4- dihydropyridine- 3,5-dicarboxylate [benidipine]
cell-protective ability against MPP+ (FIG. 4) [1]: cell-protective ability

COC(=O)C1=C(C)NC(C)=C(C(=O)OC(C)(C)CN(C)CCC(c2ccccc2)c2ccccc2)C1c1cccc([N+](=O)[O-])c1 (stereo not shown) [lercanidipine, 5-O-[1-[3,3-diphenylpropyl (methyl)amino]-2-methylpropan-2-yl] 3-O-methyl 2,6-dimethyl-4-(3-nitrophenyl)-1,4-dihydropyridine-3,5-dicarboxylate]
protective effects on mitochondrial functions (FIG. 3) [1]: protective effects | protective effects against MPP+ (FIG. 2) [1]: Protective Effects

3-O-(2-methoxyethyl) 5-O-propoan-2-yl 2,6-dimethyl-4-(3- nitrophenyl)-1,4- dihydropyridine-3.5- dicarboxylate [nimodipine]
cell-protective ability against MPP+ (FIG. 4) [1]: cell-protective ability | protective activity on mitochondria and cells at sub-nanomolar doses [1]: protective activity on mitochondria and cells even under sub-nanomolar doses | intracellular ROS content, FIG. 4(E) [2]: reduced ROS production significantly | mitochondrial ROS content, FIG. 4(D) [2]: reduced ROS production significantly

cinepazide
protective effects on mitochondrial functions (FIG. 3) [1]: protective effects | protective effects against MPP+ induced cellular and mitochondrial damages (FIG. 1) [1]: protective effects

mitiglinide
protective effects against MPP+ induced cellular and mitochondrial damages (FIG. 1) [1]: protective effects

5-O-ethyl 3-O-methyl 2,6-dimethyl-4-(3- nitrophenyl)-1,4- didropyridine-3,5- dicarboxylate [nitrendipine]
cell-protective ability against MPP+ (FIG. 4) [1]: cell-protective ability
